Values of other authors, collected in patent US8071641B2, “Treating or preventing diabetes with cannabidiol” (Yissum Research Development Company of the Hebrew …, priority 2004, dated 2011).

The chains behind the UniProt entries cited, without tags or fusion partners.
UniProt P21554, whole entry: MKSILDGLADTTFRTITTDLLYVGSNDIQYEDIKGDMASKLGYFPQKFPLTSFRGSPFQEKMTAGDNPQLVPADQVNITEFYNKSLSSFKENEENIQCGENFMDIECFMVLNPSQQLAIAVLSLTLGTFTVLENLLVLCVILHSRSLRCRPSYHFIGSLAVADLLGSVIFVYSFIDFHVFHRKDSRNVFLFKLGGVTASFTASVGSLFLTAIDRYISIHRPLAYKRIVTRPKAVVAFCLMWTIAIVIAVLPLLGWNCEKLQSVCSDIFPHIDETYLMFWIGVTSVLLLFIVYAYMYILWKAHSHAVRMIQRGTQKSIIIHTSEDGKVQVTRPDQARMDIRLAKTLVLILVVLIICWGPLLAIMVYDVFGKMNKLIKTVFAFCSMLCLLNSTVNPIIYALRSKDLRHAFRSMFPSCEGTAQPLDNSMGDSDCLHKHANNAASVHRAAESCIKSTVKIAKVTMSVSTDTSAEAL

Target: brain receptor CB1 (Homo sapiens, UniProt P21554)
Details: cited from earlier work

C=C(C)[C@@H]1CCC(C)=C[C@H]1c1c(O)cc(CCCCC)cc1O [CBD, Cannabidiol]
binding to brain receptor CB1: does not bind
